Measurements published in patent US20180344856A1, “COMPOSITIONS AND/OR ARTICLES WITH IMPROVED SOLUBILITY OF A SOLID ACTIVE” (The Procter & Gamble Company, priority 2012, published 2018).

Columns and labels:
[1] = Solvency of solvents for tetrahydrocurcuminoids (THC), visual check for crystals after storage; conditions: solute tetrahydrocurcuminoids (THC), 3% test solution, approximately 1:32 solute to solvent ratio, soluble = no visible crystals; for Solubility, 24 hour rest at Ambient Conditions: heated to 70° C.; for Solubility, 7 day storage at 5° C.: then equilibration to ambient conditions
[2] = Solvency of solvents for hexylresorcinol, visual check for crystals after storage; type: physicochemical; conditions: solute hexylresorcinol, 33.5% test solution, approximately 1:2 solute to solvent ratio, soluble = no visible crystals; for Solubility, 24 hour rest at Ambient Conditions: heated to 70° C.; for Solubility, 7 day storage at 5° C.: then equilibration to ambient conditions
Method: (§1) In the testing provided below, “soluble” (or “solubilize”), in relation to the solubility of a solid solute being tested, means that no visible crystals may be seen after a prescribed storage period at a storage condition. The storage period can vary. Suitable storage periods include about 24 hours, about 1 week, and about 30 days. Suitable storage conditions include ambient conditions or cold storage at 5° C. (approximately 1 atm). In certain embodiments, solubility may be determined after a 24 hour storage period at ambient conditions. In other embodiments, solubility may be determined after 20 days in cold storage. Other testing parameters may include storage for prolonged time periods (e.g., 30 day, 50 days, 60 days, 90 days) and at variable temperatures (e.g., 5° C., 50° C.).
(§2) The solvency of an isosorbide diester within the scope of the present invention was tested against two conventional, industry standard solvents. The solvency of isosorbide dicaprylate, isopropyl lauroyl sarcosinate, and C12-15 alkyl benzoate was tested when using hexylresorcinol (commercially available as Synovea® HR from Sytheon, Ltd.) as the solid cosmetic active. A test solution of 33.5% hexylresorcinol is prepared with heating to 70° C. Upon reaching 70° C., the examples may be mixed for about 10 minutes. Place mixtures in a covered vial and cool to the storage temperature. Solubility is evaluated for samples stored 24 hours at ambient conditions. Solubility is also evaluated for samples stored for 7 day at 5° C. followed by equilibration to ambient conditions.

[3] = Solvency of solvents for (S)-Equol, visual check for crystals after storage; type: physicochemical; conditions: solute (S)-Equol, 6% test solution, approximately 1:16 solute to solvent ratio, soluble = no visible crystals; for Solubility, 24 hour rest at Ambient Conditions: heated to 70° C.; for Solubility, 7 day storage at 5° C.: then equilibration to ambient conditions
Method: as §1
as §2, with “tested” for “tested when”, “(S)-Equol (i.e., 4′,7-isoflavandiol, commercially” for “hexylresorcinol (commercially”, “available” for “available as Synovea® HR”, “Girindus America, Inc, Reading, Ohio)” for “Sytheon, Ltd.)”, “solution was” for “solution”, “6% Equol” for “33.5% hexylresorcinol”

Substance	Solubility, 24 hour rest at Ambient Conditions [1]	Solubility, 7 day storage at 5° C. [1]	Solubility, 24 hour rest at Ambient Conditions [2]	Solubility, 7 day storage at 5° C. [2]	Solubility, 24 hour rest at Ambient Conditions [3]	Solubility, 7 day storage at 5° C. [3]
C12-15 alkyl benzoate	Insoluble	Insoluble	Soluble	Soluble	Insoluble	Insoluble
isosorbide dicaprylate	Soluble	Soluble	Soluble	Soluble	Soluble	Soluble
